Consider 1 molecule from patent US20070213370A1, “5-HTP Combination Therapy” (H. Lundbeck A/S, priority 2005, published 2007).

This assay concerns NMRI/BOM mice. In words: Mouse forced swim test. Format: in vivo. The following applies: 5-HTP 25 mg/kg SC.

For `CNCCC(Oc1ccc(C(F)(F)F)cc1)c1ccccc1` (stereo not shown), the “Potentiation (ratio between ED50 for SRI alone and SRI in combination with 5-HTP)” value is above 1.6.
